Laboratory results: patent US10071991B2, “Substituted pyridine derivatives useful as c-fms kinase inhibitors” (Janssen Pharmaceutica NV, priority 2013, dated 2018)

Tested on: CSF-1 induced MCP-1 expression in human monocytes
Test: cells
Details: Monocyte, read-out: IC50 (mM) (Mean (n = 3) ± Std. Dev)

| SMILES | IC50 [mM] |
| --- | --- |
| CC1(C)CC=C(c2nc([C@H]3CC(C)(C)O[C@@](C)(CO)C3)ccc2NC(=O)c2nc(C#N)c[nH]2)CC1 (single isomer, unassigned) [(I-M7-2R,4S)] | 0.00237 ± 0.00046 |
| CC1(C)CC=C(c2nc([C@@H]3CC(C)(C)O[C@](C)(CO)C3)ccc2NC(=O)c2nc(C#N)c[nH]2)CC1 (single isomer, unassigned) [(I-M7-2S,4R)] | 0.001 ± 0.00055 |
